Source: patent US11136312B2, “3,4,5-trisubstituted-1,2,4-triazoles and 3,4,5-trisubstituted-3-thio-1,2,4-triazoles and uses thereof” (Board of Trustees of Southern Illinois University, priority 2017, dated 2021)
Values joined by “and” are separate entries in the source; they are usually repeats but may differ in a detail not shown here. Equal values may be shown once.

Chains of the proteins cited; added tags and fusions are not shown. Lines headed by an entry give the natural chain unless they say otherwise; changes in a name come on top.
UniProt P31391: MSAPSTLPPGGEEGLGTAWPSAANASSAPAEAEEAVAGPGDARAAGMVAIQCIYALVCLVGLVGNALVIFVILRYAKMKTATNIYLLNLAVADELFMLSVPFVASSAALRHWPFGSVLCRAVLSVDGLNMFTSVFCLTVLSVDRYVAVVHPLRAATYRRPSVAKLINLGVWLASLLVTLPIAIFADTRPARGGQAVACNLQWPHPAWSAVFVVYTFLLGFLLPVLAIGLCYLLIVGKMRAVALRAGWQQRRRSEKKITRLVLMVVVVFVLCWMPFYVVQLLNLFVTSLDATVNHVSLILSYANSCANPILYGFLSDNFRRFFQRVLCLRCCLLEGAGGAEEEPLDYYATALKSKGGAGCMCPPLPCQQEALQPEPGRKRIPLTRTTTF

Columns and labels:
[1] = biological target: human somatostatin receptor SSTR4 (Homo sapiens (Human), UniProt P31391); test: Competitive radioligand binding, 125I-Tyr-SRIF 14, membrane preparations; settings: competitive binding vs 125I-Tyr-SRIF 14, human SSTR4 membranes; read-out: SST4
Procedure: Respective membrane receptor preparations were prepared in assay buffer (25 mM HEPES, 10 mM MgCl2, 1 mM CaCl2, 0.5% BSA, pH=7.4) at a 1:150 dilution. […] Binding assays were performed in triplicate for each concentration of ligand in a total volume of 200 μL radioligand (25 μL ligand, 25 μL radioligand, 150 μL receptors) and incubated at room temperature for 90 minutes using a shaking table. Binding was terminated by filtration through GF/B glass fiber filters that were presoaked in 0.5% polyethyleneimine for a minimum of 4 hours. Filters were washed 9× with 1000 μL ice cold wash buffer (50 mM Tris-HCl, pH=7.4, 0.2% BSA). Filters were scored, transferred into plastic test tubes and counted in a gamma counter (Wizard2, Perkin-Elmer). Determination of the Ki for each compound was performed using non-linear regression with GraphPad PRISM-5 software (GraphPad Software, Inc., La Jolla, Calif.).

[2] = biological target: CHO-K1 cells expressing human somatostatin SSTR4 (Homo sapiens (Human), UniProt P31391); test: Inhibition of forskolin stimulated cAMP, TR-FRET LANCE assay; type: cell-based; settings: against 5 μM forskolin
Procedure: Measurement of forskolin stimulated inhibition of cAMP was performed via time-resolved fluorescence resonance energy transfer (TR-FRET) LANCE assay (AD0262, PerkinElmer Life Science, Inc., Boston Mass.). […] LANCE cAMP assay was performed per manufacture instruction with assessment of respective compound, somatostatin-28 (Sigma-Aldrich Co., St. Louis, Mo.) as control agonist, against 5 μM forskolin, performed in triplicate across concentration curve. […] Data was calculated via GraphPad PRISM-5 software.

Structure (SMILES) | Ki [1] | EC50 [2]
COc1ccc2[nH]cc(Cc3nnc(Cc4ccccc4)n3CCCc3c[nH]cn3)c2c1 [SK-I-53, 3-((4-(3-(1H-imidazol-4-yl)propyl)-5-benzyl-4H-1,2,4-triazol-3-yl)methyl)-5-methoxy-1H-indole] | 3.11 nM | 5.97 nM
Fc1ccc2c(Cc3nnc(Cc4c[nH]c5cc(F)ccc45)n3CCCc3c[nH]cn3)c[nH]c2c1 [SK-I-124, 3,3′-((4-(3-(1H-imidazol-4-yl)propyl)-4H-1,2,4-triazol-3,5-diyl)bis(methylene))bis(6-fluoro-1H-indole)] | 0.707 nM | 0.725 nM
CS(=O)(=O)c1cccc(Cc2nnc(Cc3c[nH]c4ccccc34)n2CCCc2c[nH]cn2)c1 [MM-I-72, 3-((4-(3-(1H-imidazol-4-yl)propyl)-5-(3-(methylsulfonyl)benzyl)-4H-1,2,4-triazol-3-yl)methyl)-1H-indole] | 1.02 nM | 3.32 nM
Fc1cc(F)cc(Cc2nnc(CCc3c[nH]c4ccccc34)n2CCCc2c[nH]cn2)c1 [SM-I-55, 3-(2-(4-(3-(1H-Imidazol-4-yl)propyl)-5-(3,5-difluorobenzyl)-4H-1,2,4-triazol-3-yl)ethyl)-1H-indole] | 16.2 nM | 8.81 nM
COc1ccccc1Cc1nnc(CCc2c[nH]c3ccccc23)n1CCCc1c[nH]cn1 [MM-I-21, 3-(2-(4-(3-(1H-Imidazol-4-yl)propyl)-5-(2-methoxybenzyl)-4H-1,2,4-triazol-3-yl)ethyl)-1H-indole] | 39.5 nM | 28.9 nM
COc1ccc2[nH]cc(Cc3nnc(Cc4ccc(F)cc4)n3CCCc3c[nH]cn3)c2c1 [SK-I-55, 3-((4-(3-(1H-imidazol-4-yl)propyl)-5-(4-fluorobenzyl)-4H-1,2,4-triazol-3-yl)methyl)-5-methoxy-1H-indole] | 2.79 nM | 6.02 nM
Brc1cccc(Cc2nnc(CCc3c[nH]c4ccccc34)n2CCCc2c[nH]cn2)c1 [SM-I-50, 3-(2-(4-(3-(1H-Imidazol-4-yl)propyl)-5-(3-bromobenzyl)-4H-1,2,4-triazol-3-yl)ethyl)-1H-indole] | 5.54 nM | 4.35 nM
COc1ccc(Cc2nnc(Cc3c[nH]c4ccc(OC)cc34)n2CCCc2c[nH]cn2)cc1 [SK-I-56, 3-((4-(3-(1H-imidazol-4-yl)propyl)-5-(4-methoxybenzyl)-4H-1,2,4-triazol-3-yl)methyl)-5-methoxy-1H-indole] | 3.33 nM | 5.63 nM
Fc1ccc2c(Cc3nnc(Cc4ccccc4)n3CCCc3c[nH]cn3)c[nH]c2c1 [MM-I-89, 3-((4-(3-(1H-imidazol-4-yl)propyl)-5-benzyl-4H-1,2,4-triazol-3-yl)methyl)-6-fluoro-1H-indole] | 2.97 nM | 2.8 nM
c1ccc(Cc2nnc(CCc3c[nH]c4ccccc34)n2CCCc2c[nH]cn2)cc1 [SM-I-26, 3-(2-(4-(3-(1H-Imidazol-4-yl)propyl)-5-benzyl-4H-1,2,4-triazol-3-yl)ethyl)-1H-indole] | 11.9 nM and 12.8 nM | 16.5 nM and 23.5 nM
Fc1ccc2c(Cc3nnc(Cc4cccc(C(F)(F)F)c4)n3CCCc3c[nH]cn3)c[nH]c2c1 [MM-I-87, 3-((4-(3-(1H-imidazol-4-yl)propyl)-5-(3-(trifluoromethyl)benzyl)-4H-1,2,4-triazol-3-yl)methyl)-6-fluoro-1H-indole] | 0.673 nM | 0.249 nM
COc1cccc(Cc2nnc(CCc3c[nH]c4ccccc34)n2CCCc2c[nH]cn2)c1 [BN-VI-61, 3-(2-(4-(3-(1H-Imidazol-4-yl)propyl)-5-(3-methoxybenzyl)-4H-1,2,4-triazol-3-yl)ethyl)-1H-indole] | 7.74 nM and 9.32 nM | 15.6 nM
Cn1cc(CCc2nnc(Cc3cccc(C(F)(F)F)c3)n2CCCc2c[nH]cn2)c2ccccc21 [SM-I-76, 3-(2-(4-(3-(1H-imidazol-4-yl)propyl)-5-(3-(trifluoromethyl)benzyl)-4H-1,2,4-triazol-3-yl)ethyl)-1-methyl-1H-indole] | 11 nM | 10.7 nM
